Assay results taken from ChEMBL document CHEMBL3425488, “Novel histone deacetylase inhibitors induce growth arrest, apoptosis, and differentiation in sarcoma cancer stem cells” (J Med Chem, 2015).

Chains of the proteins cited; added tags and fusions are not shown. Lines headed by an entry give the natural chain unless they say otherwise; changes in a name come on top.
UniProt O15379: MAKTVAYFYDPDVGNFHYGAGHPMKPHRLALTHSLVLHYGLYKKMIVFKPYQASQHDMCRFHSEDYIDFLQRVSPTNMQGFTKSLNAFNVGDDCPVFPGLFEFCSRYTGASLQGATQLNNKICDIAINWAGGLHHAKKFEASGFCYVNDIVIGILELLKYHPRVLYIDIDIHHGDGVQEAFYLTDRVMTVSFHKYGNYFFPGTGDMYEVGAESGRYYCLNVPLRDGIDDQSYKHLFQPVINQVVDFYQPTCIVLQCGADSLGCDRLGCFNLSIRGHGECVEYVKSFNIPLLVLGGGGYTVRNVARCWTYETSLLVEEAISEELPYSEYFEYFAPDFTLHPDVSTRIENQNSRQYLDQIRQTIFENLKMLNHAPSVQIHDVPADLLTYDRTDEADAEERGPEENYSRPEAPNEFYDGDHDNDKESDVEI

How the values were obtained:
Histone deacetylase 3 = Histone deacetylase 3 (Homo sapiens, UniProt O15379); test: Inhibition of recombinant HDAC3 (unknown origin) by homogeneous fluorescence release assay
[1] = biological target: T1, Protein deacetylase HDAC6 (Homo sapiens, UniProt Q9UBN7); test: Inhibition of recombinant HDAC6 (unknown origin) by homogeneous fluorescence release assay
T1 sequence (Q9UBN7 whole entry): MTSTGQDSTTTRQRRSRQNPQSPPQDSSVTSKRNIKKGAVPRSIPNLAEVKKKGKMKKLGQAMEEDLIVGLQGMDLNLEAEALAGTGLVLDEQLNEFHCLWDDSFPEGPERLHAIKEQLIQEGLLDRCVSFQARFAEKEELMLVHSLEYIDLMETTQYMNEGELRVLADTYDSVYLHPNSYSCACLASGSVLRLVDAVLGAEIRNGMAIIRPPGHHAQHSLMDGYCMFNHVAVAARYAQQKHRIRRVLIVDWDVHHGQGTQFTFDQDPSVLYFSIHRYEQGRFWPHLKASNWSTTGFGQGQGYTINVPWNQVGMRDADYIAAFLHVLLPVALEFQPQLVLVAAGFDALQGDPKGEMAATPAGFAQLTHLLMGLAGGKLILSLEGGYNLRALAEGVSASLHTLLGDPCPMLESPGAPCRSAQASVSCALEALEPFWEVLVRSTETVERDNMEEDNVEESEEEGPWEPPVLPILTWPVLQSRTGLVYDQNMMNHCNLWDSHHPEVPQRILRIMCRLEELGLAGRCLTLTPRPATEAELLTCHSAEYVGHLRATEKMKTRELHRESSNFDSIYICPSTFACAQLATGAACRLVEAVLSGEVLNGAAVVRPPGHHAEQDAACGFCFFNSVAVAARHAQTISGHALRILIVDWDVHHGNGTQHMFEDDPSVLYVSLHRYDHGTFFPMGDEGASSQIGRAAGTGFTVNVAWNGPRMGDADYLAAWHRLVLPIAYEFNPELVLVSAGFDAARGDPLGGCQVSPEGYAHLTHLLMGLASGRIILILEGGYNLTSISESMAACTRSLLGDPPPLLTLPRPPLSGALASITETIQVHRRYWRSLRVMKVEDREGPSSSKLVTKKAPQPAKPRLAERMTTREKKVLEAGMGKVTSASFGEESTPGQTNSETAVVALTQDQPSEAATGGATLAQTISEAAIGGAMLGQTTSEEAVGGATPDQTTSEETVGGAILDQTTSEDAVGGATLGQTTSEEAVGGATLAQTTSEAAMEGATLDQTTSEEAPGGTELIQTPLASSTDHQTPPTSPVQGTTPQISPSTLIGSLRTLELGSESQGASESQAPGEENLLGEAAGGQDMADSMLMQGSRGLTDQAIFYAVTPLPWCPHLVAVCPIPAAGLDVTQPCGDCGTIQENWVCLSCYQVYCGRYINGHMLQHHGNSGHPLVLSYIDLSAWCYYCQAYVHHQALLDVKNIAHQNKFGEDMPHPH

Work on `O=C(CCCCSc1nc(-c2ccc(-c3ccccc3)cc2)cc(=O)[nH]1)NO` yielded an IC50 (Histone deacetylase 3) of 20 nM and an IC50 [1] of 7 nM.
